Test results from PMC10424242, “Macrocyclic Peptidomimetic Plasmepsin X Inhibitors with Potent In Vitro and In Vivo Antimalarial Activity” (Journal of Medicinal Chemistry, 2023).

By UniProt entry, the sequences of proteins in these tests, tags left out. Residues count along the entry.
UniProt P56817, 46-501: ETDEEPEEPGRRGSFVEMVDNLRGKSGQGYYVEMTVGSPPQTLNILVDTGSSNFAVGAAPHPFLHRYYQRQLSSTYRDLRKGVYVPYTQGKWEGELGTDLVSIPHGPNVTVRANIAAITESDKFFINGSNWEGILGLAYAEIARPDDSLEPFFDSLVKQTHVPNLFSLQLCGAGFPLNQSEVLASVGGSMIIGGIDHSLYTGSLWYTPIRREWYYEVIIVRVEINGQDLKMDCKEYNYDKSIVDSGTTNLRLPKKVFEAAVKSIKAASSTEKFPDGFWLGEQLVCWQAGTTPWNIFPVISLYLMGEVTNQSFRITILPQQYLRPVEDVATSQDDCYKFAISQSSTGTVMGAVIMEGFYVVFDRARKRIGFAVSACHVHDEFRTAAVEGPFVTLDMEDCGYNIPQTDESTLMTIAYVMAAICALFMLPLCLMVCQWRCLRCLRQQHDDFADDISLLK
UniProt P07339, 65-412: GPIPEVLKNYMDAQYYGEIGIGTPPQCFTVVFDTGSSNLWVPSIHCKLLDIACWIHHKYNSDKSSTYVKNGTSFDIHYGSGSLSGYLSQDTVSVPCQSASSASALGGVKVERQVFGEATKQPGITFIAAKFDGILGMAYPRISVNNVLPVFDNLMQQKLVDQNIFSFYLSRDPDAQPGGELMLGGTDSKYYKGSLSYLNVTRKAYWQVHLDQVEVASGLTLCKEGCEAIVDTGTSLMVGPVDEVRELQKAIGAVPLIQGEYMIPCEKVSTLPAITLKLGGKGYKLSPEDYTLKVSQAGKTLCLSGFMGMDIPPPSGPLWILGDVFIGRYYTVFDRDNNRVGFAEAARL

Key:
[1] = test system: P. falciparum strain Dd2 (chloroquine-resistant); test: microbe, parasite or virus in culture; conditions: Plasmodium falciparum, DD2, 96 h, read-out: flow cytometry Dd2 EC50 (nM)
[2] = test system: P. falciparum strain 3D7 (chloroquine-sensitive); test: microbe, parasite or virus in culture; conditions: Plasmodium falciparum, 3D7, 96 h, read-out: flow cytometry 3D7 EC50 (nM)
BACE1 = BACE1 (Homo sapiens, UniProt P56817); test: FRET-based BACE1 inhibition assay (selectivity counter screen); assay type: biochemical; conditions: versus PMX
Procedure: (§1) A fluorescence resonance energy transfer (FRET)-based assay was performed to assess the ability of the compounds to inhibit PMIV, CatD, and BACE1. Serial dilutions of test compounds were dispensed in a white 96-well plate. […] The mixture was incubated for 20 min at 37 °C. […] IC50 values were calculated with GraphPad Prism 8.0 using the nonlinear regression, variable slope (four parameters). Compounds were tested in triplicate.

cathepsin D (CatD) = cathepsin D (CatD) (Homo sapiens, UniProt P07339); test: FRET-based CatD inhibition assay (selectivity counter screen); assay type: biochemical; conditions: versus PMX
Procedure: as §1

| SMILES | EC50 [1] [nM] | EC50 [2] [nM] | selectivity against BACE1 (BACE1) [×] | selectivity against CatD (cathepsin D (CatD)) [×] |
| --- | --- | --- | --- | --- |
| COc1cccc(C(C)(C)NC[C@@H](O)[C@@H]2Cc3cccc(c3)OCCCCN(CCC(F)(F)F)C(=O)c3cccc(c3)C(=O)N2)c1 [7d, (S)-4-((R)-1-Hydroxy-2-((2-(3-methoxyphenyl)propan-2-yl)amino)ethyl)-12-(3,3,3-trifluoropropyl)-7-oxa-3,12-diaza-1,6(1,3)-dibenzenacyclotridecaphane-2,13-dione] | 9.5 ± 1.4 | 6.2 ± 1 | – | – |
| COc1cccc(C(C)(C)NC[C@@H](O)[C@@H]2Cc3cccc(c3)OCCCCN(CCN(C)C)C(=O)c3cccc(c3)C(=O)N2)c1 [7f, (S)-12-(2-(Dimethylamino)ethyl)-4-((R)-1-hydroxy-2-((2-(3-methoxyphenyl)propan-2-yl)amino)ethyl)-7-oxa-3,12-diaza-1,6(1,3)-dibenzenacyclotridecaphane-2,13-dione] | 9.6 ± 0.7 | 6.5 ± 1.2 | – | – |
| CCCN1CCOCCc2cccc(c2)C[C@@H]([C@H](O)CNC(C)(C)c2cccc(OC)c2)NC(=O)c2cccc(c2)C1=O [7i, (S)-4-((R)-1-Hydroxy-2-((2-(3-methoxyphenyl)propan-2-yl)amino)ethyl)-12-propyl-9-oxa-3,12-diaza-1,6(1,3)-dibenzenacyclotridecaphane-2,13-dione] | 2 ± 0.3 | 2 ± 0.3 | – | – |
| CCCN1CCCCc2cccc(c2)C[C@@H]([C@H](O)CNC(C)(C)c2cccc(OC)c2)NC(=O)c2cccc(c2)C1=O [7j, (S)-4-((R)-1-Hydroxy-2-((2-(3-methoxyphenyl)propan-2-yl)amino)ethyl)-11-propyl-3,11-diaza-1,6(1,3)-dibenzenacyclododecaphane-2,12-dione] | 4.4 ± 0.5 | 2.7 ± 0.5 | – | – |
| COc1cccc(C(C)(C)NC[C@@H](O)[C@@H]2Cc3cccc(c3)OCCCCN(C)C(=O)c3cccc(c3)C(=O)N2)c1 [7c, (S)-4-((R)-1-Hydroxy-2-((2-(3-methoxyphenyl)propan-2-yl)amino)ethyl)-12-methyl-7-oxa-3,12-diaza-1,6(1,3)-dibenzenacyclotridecaphane-2,13-dione] | 4.9 ± 0.9 | 2.6 ± 0.1 | – | – |
| COc1cccc(C(C)(C)NC[C@@H](O)[C@@H]2Cc3cccc(c3)OCCCCNC(=O)c3cccc(c3)C(=O)N2)c1 [7b, (S)-4-((R)-1-Hydroxy-2-((2-(3-methoxyphenyl)propan-2-yl)amino)ethyl)-7-oxa-3,12-diaza-1,6(1,3)-dibenzenacyclotridecaphane-2,13-dione] | 13.1 ± 3.1 | 6.4 ± 0.9 | – | – |
| CCCN1CCCCCOc2cccc(c2)C[C@@H]([C@H](O)CNC(C)(C)c2cccc(OC)c2)NC(=O)c2cccc(c2)C1=O [7g, (S)-4-((R)-1-Hydroxy-2-((2-(3-methoxyphenyl)propan-2-yl)amino)ethyl)-13-propyl-7-oxa-3,13-diaza-1,6(1,3)-dibenzenacyclotetradecaphane-2,14-dione] | 9.6 ± 1 | 6.7 ± 2.3 | – | – |
| CCCN1CCOc2cccc(c2)C[C@@H]([C@H](O)CNC(C)(C)c2cccc(OC)c2)NC(=O)c2cccc(c2)C1=O [7h] | 6.7 ± 1 | 0.8 ± 0.4 | – | – |
| COc1cccc(C(C)(C)NC[C@@H](O)[C@@H]2Cc3cccc(c3)OCCCCN(CC(C)(C)C)C(=O)c3cccc(c3)C(=O)N2)c1 [7e] | 3.5 ± 0.4 | 2.2 ± 0.6 | – | – |
| CCCN1CCCCOc2cccc(c2)C[C@@H]([C@H](O)CNC(C)(C)c2cccc(OC)c2)NC(=O)c2cccc(c2)C1=O [7a, (S)-4-((R)-1-Hydroxy-2-((2-(3-methoxyphenyl)propan-2-yl)amino)ethyl)-12-propyl-7-oxa-3,12-diaza-1,6(1,3)-dibenzenacyclotridecaphane-2,13-dione] | 4.7 ± 0.5 | 1 ± 0.3 | – | – |
| CCCN1CCCCCc2cccc(c2)C[C@@H]([C@H](O)CNC(C)(C)c2cccc(OC)c2)NC(=O)c2cccc(c2)C1=O [7k, (S)-4-((R)-1-Hydroxy-2-((2-(3-methoxyphenyl)propan-2-yl)amino)ethyl)-12-propyl-3,12-diaza-1,6(1,3)-dibenzenacyclotridecaphane-2,13-dione] | 0.9 ± 0.2 | 0.6 ± 0.1 | > 100 | > 100 |
